Data published in patent publication US20210196678A1, “SELECTIVE ANDROGEN RECEPTOR DEGRADER (SARD) LIGANDS AND METHODS OF USE THEREOF” (University of Tennessee Research Foundation, priority 2018, published 2021).

Columns and labels:
full length AR = assay: LNCaP or AD1 degradation (full length AR, Western blot); assay type: cell-based
[1] = SARD compound serum concentrations in Hershberger rats (LC-MS/MS)

C[C@](O)(Cn1cc(Cl)cn1)C(=O)Nc1ccc(C#N)c(C(F)(F)F)c1 [Compound 1049]
Degradation (% at 3 μm) (full length AR): 42%

C[C@](O)(Cn1cc(F)cn1)C(=O)Nc1ccc(C#N)c(C(F)(F)F)c1 [Compound 1002]
Serum Conc. ([1]; Table 4, rats, 20 mg/kg): 33 nM

C[C@](O)(Cn1cc(Br)c(F)n1)C(=O)Nc1ccc(C#N)c(C(F)(F)F)c1 [Compound 1058, (S)-3-(4-Bromo-3-fluoro-1H-pyrazol-1-yl)-N-(4-cyano-3-(trifluoromethyl)phenyl)-2-hydroxy-2-methylpropanamide]
Serum Conc. ([1]; Table 2, rats, 20 mg/kg daily for 13 days): 404 nM
Serum Conc. ([1]; Table 4, rats, 20 mg/kg): 404 nM

C[C@](O)(Cn1cc(Cl)c(Br)n1)C(=O)Nc1ccc(C#N)c(C(F)(F)F)c1 [Compound 1066]
Serum Conc. ([1]; Table 4, rats, 20 mg/kg): 19 nM
